Data as given in IntAct's records for PubMed 16901789.

B1: E3 ubiquitin-protein ligase RNF5 (Homo sapiens), Q99942 (parent)
chain: MAAAEEEDGGPEGPNRERGGAGATFECNICLETAREAVVSVCGHLYCWPCLHQWLETRPERQECPVCKAGISREKVVPLYGRGSQKPQDPRLKTPPRPQGQRPAPESRGGFQPFGDTGGFHFSFGVGAFPFGFFTTVFNAHEPFRRGTGVDLGQGHPASSWQDSLFLFLAIFFFFWLLSI

Variants of: B1
Details: with cftr_human CFTR

| effect of a mutation on the interaction | Variant |
| --- | --- |
| increasing interaction | MAAAEEEDGGPEGPNRERGGAGATFECNICLETAREAVVSVSGHLYCWPCLHQWLETRPERQECPVCKAGISREKVVPLYGRGSQKPQDPRLKTPPRPQGQRPAPESRGGFQPFGDTGGFHFSFGVGAFPFGFFTTVFNAHEPFRRGTGVDLGQGHPASSWQDSLFLFLAIFFFFWLLSI [C42S] |
